Test results: US6008258A, “d-methadone, a nonopioid analegesic” (priority 1998, dated 1999)
“Also recorded” adds a separate entry of the source. Read-outs that look alike come from different tables or passages of the source.

Experiments:
rat = test: Overt CNS/motor effects and 60-degree mesh test after spinal drug
[1] = tested on: opiate receptors of rat brain; conditions: Horng; cited from earlier work
[2] = tested on: NMDA receptor (noncompetitive MK-801 site), rat forebrain; format: binding
[3] = molecular target: NMDA receptor (competitive site), rat forebrain; test: [3H]CGS-19755 displacement, rat forebrain membranes; format: binding; conditions: CNS region forebrain

CCC(=O)C(C[C@H](C)N(C)C)(c1ccccc1)c1ccccc1 [d-Methadone, (S)-(+)-methadone]
ability to negotiate the 60-degree mesh (rat; 32 μg/rat, immediately before formalin): able to negotiate the 60-degree mesh | transient motor paralysis of the hind limbs (rat; 160 μg/rat spinal): 44% | transient motor paralysis of the hind limbs (rat; 320 μg/rat spinal): 100% | onset of the paralysis after administration (rat; 160 and 320 μg/rat spinal): approximately 1 minute | opioid activity [1]: weak or inactive | affinity for NMDA receptor (noncompetitive MK-801 site) [2]: moderate affinity; also recorded: μM affinity, similar to that of dextromethorphan | displacement of [3H]MK-801 binding [2]: displacement curves similar to dextromethorphan

COc1ccc2c(c1)[C@]13CCCC[C@@H]1[C@H](C2)N(C)CC3 [Dextromethorphan]
Ki [3]: > 100 µM | Ki ([2]; read-out: [3H]MK-801 Ki, forebrain): 5 ± 0.3 µM | affinity for NMDA receptor (noncompetitive MK-801 site) ([2]; spinal cord and forebrain): moderate affinity

CCC(=O)C(CC(C)N(C)C)(c1ccccc1)c1ccccc1 (racemic) [dl-Methadone]
affinity for NMDA receptor (noncompetitive MK-801 site) [2]: moderate affinity | displacement of [3H]MK-801 binding [2]: displacement curves similar to dextromethorphan

CCC(=O)C(C[C@@H](C)N(C)C)(c1ccccc1)c1ccccc1 [l-Methadone, (R)-(-)-methadone]
ability to displace [3H]naloxone binding vs d-methadone (greater) [1]: 30 fold | affinity for NMDA receptor (noncompetitive MK-801 site) [2]: moderate affinity; also recorded: μM affinity, similar to that of dextromethorphan | displacement of [3H]MK-801 binding [2]: displacement curves similar to dextromethorphan | relative potency in displacing [3H]MK-801 [2]: slightly more potent
